Target: T1, PD-1Ig (extracellular domain of mouse PD-1 linked to the Fc portion of mouse IgG2a) (mouse, UniProt Q02242 25-169)
T1 construct: extracellular domain; Produced in stably transfected CHO cells; used coated in the capture ELISA and immobilized on the CM5 chip in SPR; also called mPD-1; not shown: Fc portion of mouse IgG2a
T1 sequence (looked up): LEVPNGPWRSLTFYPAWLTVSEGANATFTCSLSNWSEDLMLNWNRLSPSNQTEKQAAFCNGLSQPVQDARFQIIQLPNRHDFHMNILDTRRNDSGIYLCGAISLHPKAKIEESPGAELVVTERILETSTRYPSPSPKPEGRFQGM
Assay: capture ELISA, PD-1Ig coated, COS supernatant, relative to wild type B7-DCIg

B1: mouse B7-DCIg variant D111S (Fc fusion)
chain: LFTVTAPKEVYTVDVGSSVSLECDFDRRECTELEGIRASLQKVENDTSLQSERATLLEEQLPLGKALFHIPSVQVRDSGQYRCLVICGAAWSYKYLTVKVKASYMRIDTRILEVPGTGEVQLTCQARGYPLAEVSWQNVSVPANTSHIRTPEGLYQVTSVLRLKPQPSRNFSCMFWNAHMKELTSAIIDPLSRMEPKVPRTW
notes: also called B7-DC variant D111; not shown: CH2-CH3 portion of human IgG1
With B1 the “PD-1 binding, ELISA (%)” value was 0.3%.

— patent publication US20090042292A1 (Johns Hopkins, published 2009)
